Data on one compound can be found in paper PMC6522981, “Structure-based design generated novel hydroxamic acid based preferential HDAC6 lead inhibitor with on-target cytotoxic activity against primary choroid plexus carcinoma” (Journal of Enzyme Inhibition and Medicinal Chemistry, 2019).

For the assay, the target named is T1, human HDAC8 (Homo sapiens, UniProt Q9BY41).
T1 construct: purchased BPS Bioscience 50008
T1 sequence (Q9BY41 1-377): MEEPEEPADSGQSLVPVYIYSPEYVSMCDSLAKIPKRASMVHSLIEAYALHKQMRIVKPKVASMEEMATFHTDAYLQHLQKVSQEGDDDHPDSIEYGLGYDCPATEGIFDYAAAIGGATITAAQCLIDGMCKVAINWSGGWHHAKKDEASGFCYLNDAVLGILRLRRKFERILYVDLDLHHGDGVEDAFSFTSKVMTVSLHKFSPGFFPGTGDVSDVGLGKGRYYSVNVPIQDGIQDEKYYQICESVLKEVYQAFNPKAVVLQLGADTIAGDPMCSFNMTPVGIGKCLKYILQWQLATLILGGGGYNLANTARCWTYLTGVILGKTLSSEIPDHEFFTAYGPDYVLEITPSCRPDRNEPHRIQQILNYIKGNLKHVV
As to the kind of experiment: HDAC8 inhibitor enzymatic assay, % inhibition at fixed concentration. Conditions: read-out: % Inhibition HDAC8. The assay is classed as biochemical.

In the case of `CC(=C/C(C)C(=O)c1ccc(N(C)C)cc1)/C=C/C(=O)NO` (stereo not shown) [TSA, Trichostatin A, reference compound], the inhibition at 100 µM was 97%.

One may read the inhibition as the percentage by which the read-out fell short of the control.
